Data published in patent US9428553B2, “Meditopes and meditope-binding antibodies and uses thereof” (City of Hope, priority 2012, dated 2016).

Tests used:
[1] = in vivo
cQFD meditope = test: SPR, antibodies over cQFD meditope-conjugated CM5 chip; assay type: binding; details: 0.01, 0.05, 0.1, 0.5 and 1 μM antibody

Substance	biodistribution [1]	binding to the meditope-conjugated chip (cQFD meditope)
meditope-enabled trastuzumab: trastuzumab mutated at framework residues to contain the cetuximab meditope binding site (SEQ ID NOs: 6 and 9)	indistinguishable	
trastuzumab: humanized monoclonal antibody that binds to ErbB2		No binding
